Measurements reported in patent publication EP4834908A1, “FUSED RING COMPOUND, PHARMACEUTICAL COMPOSITION CONTAINING SAME AND USE THEREOF” (dated 2026).

Amino acid sequences for entries named in this document (tags omitted).
UniProt Q14191, whole entry: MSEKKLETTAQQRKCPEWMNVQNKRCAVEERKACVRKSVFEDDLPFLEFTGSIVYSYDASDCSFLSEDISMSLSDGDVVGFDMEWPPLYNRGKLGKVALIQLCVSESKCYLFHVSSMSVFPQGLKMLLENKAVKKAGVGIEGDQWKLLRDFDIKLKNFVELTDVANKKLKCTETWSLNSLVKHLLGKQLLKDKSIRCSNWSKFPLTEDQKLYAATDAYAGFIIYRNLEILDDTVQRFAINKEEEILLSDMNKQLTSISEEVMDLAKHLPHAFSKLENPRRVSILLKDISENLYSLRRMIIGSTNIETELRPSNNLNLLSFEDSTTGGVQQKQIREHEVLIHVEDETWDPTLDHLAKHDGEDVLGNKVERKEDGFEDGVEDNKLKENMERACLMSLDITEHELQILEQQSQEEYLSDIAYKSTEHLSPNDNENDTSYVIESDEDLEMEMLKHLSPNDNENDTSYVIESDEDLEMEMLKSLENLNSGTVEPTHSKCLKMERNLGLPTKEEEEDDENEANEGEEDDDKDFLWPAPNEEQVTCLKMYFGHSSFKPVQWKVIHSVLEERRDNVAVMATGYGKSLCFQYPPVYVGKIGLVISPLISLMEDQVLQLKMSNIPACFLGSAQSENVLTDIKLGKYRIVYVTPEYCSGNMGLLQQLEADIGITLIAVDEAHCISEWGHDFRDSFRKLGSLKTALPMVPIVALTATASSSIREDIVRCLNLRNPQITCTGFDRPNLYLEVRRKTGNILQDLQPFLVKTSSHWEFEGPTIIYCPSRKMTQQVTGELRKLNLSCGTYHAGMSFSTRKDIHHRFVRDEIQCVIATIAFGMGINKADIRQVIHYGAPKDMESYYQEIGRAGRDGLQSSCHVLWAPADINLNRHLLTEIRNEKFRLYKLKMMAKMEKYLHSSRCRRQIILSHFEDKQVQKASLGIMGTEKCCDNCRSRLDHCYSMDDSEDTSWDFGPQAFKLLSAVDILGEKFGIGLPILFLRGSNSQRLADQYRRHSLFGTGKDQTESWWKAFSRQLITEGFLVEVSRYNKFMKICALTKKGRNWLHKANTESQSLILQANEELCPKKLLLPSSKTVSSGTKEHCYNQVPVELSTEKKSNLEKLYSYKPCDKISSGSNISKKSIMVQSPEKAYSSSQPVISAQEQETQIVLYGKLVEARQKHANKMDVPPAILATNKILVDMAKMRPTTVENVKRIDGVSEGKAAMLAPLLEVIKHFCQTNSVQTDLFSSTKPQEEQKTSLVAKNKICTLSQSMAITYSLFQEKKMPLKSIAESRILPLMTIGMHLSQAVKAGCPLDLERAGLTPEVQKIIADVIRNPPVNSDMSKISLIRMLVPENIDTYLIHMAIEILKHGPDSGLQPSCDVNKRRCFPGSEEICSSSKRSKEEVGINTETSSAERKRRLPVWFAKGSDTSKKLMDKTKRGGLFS

Tests used:
WRN helicase = WRN helicase (Homo sapiens, UniProt Q14191); experiment: ATPase activity assay of WRN helicase (ADP-Glo); conditions: read-out: WRN ATPase activity inhibition IC50; 10 nM WRN, 300 µM ATP, 0.4 nM FLAP26; 3 h pre-incubation at 37 °C
Description: The ADP content generated by ATP hydrolysis catalyzed by WRN helicase was measured using a commercial ADP-Glo assay kit (Promega, #V9102), and the measured ADP level could reflect the ATPase activity of WRN helicase.
The 45 nt oligonucleotide single-stranded DNA FLAP26 ([…]) was synthesized by Azenta. Reference was made, for example, to Brosh RM Jr et al., J Biol Chem, 2002 Jun;277(26):23236-45. A reaction buffer (30 mM Tris pH 7.5, 2 mM MgCl2, 0.02% BSA, 50 mM NaCl, 0.1% pluronic F127) was prepared. To a 384-well clear plate were sequentially added 5 µL of 3× test compound (which was diluted in the reaction buffer to contain 0.5% DMSO, with a final initial concentration of 10 µM and subjected to 1:3 serial dilution to obtain a total of 9 concentration gradients), 5 µL of 3× WRN recombinant protein, and 3× ATP substrate solution (diluted in the reaction buffer, with final concentrations of WRN and ATP being 10 nM and 300 µM, respectively). The resulting mixture was mixed well by shaking and incubated at 37 °C for 3 h. Subsequently, a 3× FLAP26 solution was prepared using the reaction buffer, and 5 µL of the solution (with a final FLAP26 concentration of 0.4 nM) was added to the 384-well clear plate. The mixture was mixed well by shaking to initiate the enzymatic reaction, and then incubated at room temperature for 30 min.
5 µL of the above mixture was transferred to a 3 84-well white plate, and 5 µL of ADP-Glo reagent was added. The mixture was mixed well by shaking, and incubated at room temperature in the dark for 40 min. 10 µL of kinase detection reagent was added to the above solution. The mixture was mixed well by shaking and incubated at room temperature in the dark for 30 min, and then chemiluminescence readings were recorded. The inhibition rate of the compound on the enzyme activity was calculated, and the inhibition rate value and the logarithm value of the compound concentration were fitted using non-linear regression (dose response-variable slope) to obtain the IC50 value of the test compound. Table 1. WRN ATPase activity data of compounds in the examples of the present application

SW48 cells = experiment: Inhibitory activity assay for tumor cell proliferation (CellCounting-Lite), SW48; conditions: read-out: SW48 Proliferation inhibition IC50, 4 days treatment
Description: (§1) Human colonic adenocarcinoma SW48 cells were cultured in monolayer in vitro under the following conditions: DMEM medium containing 10% fetal bovine serum and 1% penicillin and streptomycin, at 37 °C with 5% CO2. Human colonic adenocarcinoma HCT116 cells were cultured in monolayer in vitro under the following conditions: McCOY's5A medium containing 10% fetal bovine serum and 1% penicillin and streptomycin, at 37 °C with 5% CO2. DLD1-WRN-KO cells were cultured in monolayer in vitro under the following conditions: 1640 medium containing 10% fetal bovine serum and 1% penicillin and streptomycin, at 37 °C with 5% CO2. The cells were digested with trypsin twice a week for passaging.
(§2) After treatment of SW48 cell lines and HCT116 cell lines with microsatellite instability and the control DLD1-WRN-KO cell line using the test compounds for 4 days, ATP levels were measured using a CellCounting-Lite kit from Vazyme to evaluate inhibitory effects of the test compounds on the growth of tumor cell lines.
(§3) In the present application, the SW48 cell line, the HCT116 cell line, and the DLD1-WRN-KO cell line were seeded into a 96-well cell culture plate at an appropriate cell density. After 24 h, the cells were treated with the test compounds at the highest concentration of 10 µM, followed by 1:3 serial dilution to obtain 9 concentration gradients, and a DMSO treatment group was set up separately. The cells were cultured in an incubator at 37 °C with 5% CO2 for 4 days. To evaluate inhibitory effects of the test compounds on tumor cell proliferation, the cells were equilibrated at room temperature for 30 min, and then 100 µL of a cell proliferation detection reagent, CellCounting-Lite (CCL), was added to each well. The plate was shaken for 5 min and then incubated in the dark for 10 min. Chemiluminescence values were read using a Thermo Varioskan LUX-3020 multifunctional microplate reader for conversion to proliferation indices to calculate the inhibition rate of the compound on tumor cell proliferation, and the inhibition rate value and the logarithm value of the compound concentration were fitted using non-linear regression (dose response-variable slope) to obtain the IC50 value of the compound. Table 2. Inhibitory activity data of compounds in the examples of the present application against tumor cell proliferation

DLD1-WRN-KO cell line = experiment: Inhibitory activity assay for cell proliferation (CellCounting-Lite), DLD1-WRN-KO off-target control; conditions: read-out: DLD1-WRN-KO Proliferation inhibition IC50; DLD1-WRN-KO cells, 4 days treatment
Description: A DLD1-WRN-KO cell line was constructed by stably knocking out the WRN gene in DLD1 cells using CRISPR/Cas9 technology, and the constructed cell line was used to evaluate potential off-target effects of the compounds.
as §1, §2, §3

HCT116 cells = experiment: Inhibitory activity assay for tumor cell proliferation (CellCounting-Lite), HCT116; conditions: read-out: HCT116 Proliferation inhibition IC50, 4 days treatment
Description: as §1, §2, §3

IC50 (WRN helicase) [nM] | IC50 (SW48 cells) [nM] | IC50 (DLD1-WRN-KO cell line) [nM] | IC50 (HCT116 cells) [nM] | SMILES
11 | 2 | > 10000 |  | Cc1ncnc(C(=O)N2CCN(c3c4n(c5nc(-c6ccccc6)nn5c3=O)C(C(=O)Nc3ccc(C(F)(F)F)cc3Cl)CC4C)[C@H]3CC[C@@H]32)c1O (stereo partly shown)
1 | 0.2 | > 10000 |  | Cc1ncnc(C(=O)N2CCN(c3c4n(c5nc(-c6ccccc6)nn5c3=O)[C@@H](C(=O)Nc3ccc5c(c3Cl)OC(F)(F)O5)C[C@@H]4C)[C@H]3CC[C@@H]32)c1O
1 | 1 | > 10000 | 2.5 | Cc1ncnc(C(=O)N2CCN(c3c4n(c5nc(-c6ccccc6)nn5c3=O)C(C(=O)Nc3ccc5c(c3C)OC(F)(F)O5)CC4C)[C@H]3CC[C@@H]32)c1O (single isomer, unassigned)
4 | 10 | > 10000 | 9 | Cc1ncnc(C(=O)N2CCN(c3c4n(c5nc(-c6ccccc6)nn5c3=O)C(C(=O)Nc3ccc5c(c3)OC(F)(F)O5)CC4C)[C@H]3CC[C@@H]32)c1O (single isomer, unassigned) [C43-P1]
4 | 11 | > 10000 | 4 | Cc1ncnc(C(=O)N2CCN(c3c4n(c5nc(-c6ccccc6)nn5c3=O)C(C(=O)Nc3ccc5c(c3)OC(F)(F)O5)CC4C)[C@H]3CC[C@@H]32)c1O (single isomer, unassigned) [C43-P3]
273 | 240 | > 10000 |  | Cc1ncnc(C(=O)N2CCN(c3c4n(c5nc(-c6ccccc6)nn5c3=O)C(C(=O)Nc3ccc5c(c3Cl)OC(F)(F)O5)CC4C)[C@H]3CC[C@@H]32)c1O (single isomer, unassigned) [C89-P2]
3 | 0.2 | > 10000 |  | Cc1ncnc(C(=O)N2CCN(c3c4n(c5nc(-c6ccccc6)nn5c3=O)C(C(=O)Nc3ccc5c(c3Cl)OC(F)(F)O5)CC4C)[C@H]3CC[C@@H]32)c1O (single isomer, unassigned) [C89-P3]
10 | 148 | > 10000 |  | Cc1ncnc(C(=O)N2CCN(c3c4n(c5nc(-c6ccccc6)nn5c3=O)C(C(=O)Nc3ccc5c(c3Cl)OC(F)(F)O5)CC4C)CC2)c1O (single isomer, unassigned) [C90-P2]
13 | 29 | > 10000 |  | Cc1ncnc(C(=O)N2CCN(c3c4n(c5nc(-c6ccccc6)nn5c3=O)C(C(=O)Nc3ccc5c(c3Cl)OC(F)(F)O5)CC4C)CC2)c1O (single isomer, unassigned) [C90-P3]
9 | 10 | > 10000 | 19 | Cc1ncnc(C(=O)N2CCN(c3c4n(c5nc(-c6ccccn6)nn5c3=O)C(C(=O)Nc3ccc5c(c3Cl)OC(F)(F)O5)CC4C)[C@H]3CC[C@@H]32)c1O (single isomer, unassigned) [C93-P1]
9 | 4.2 | > 10000 | 5.4 | Cc1ncnc(C(=O)N2CCN(c3c4n(c5nc(-c6ccccn6)nn5c3=O)C(C(=O)Nc3ccc5c(c3Cl)OC(F)(F)O5)CC4C)[C@H]3CC[C@@H]32)c1O (single isomer, unassigned) [C93-P3]
14 | 12 | > 10000 | 9.7 | Cc1ncnc(C(=O)N2CCN(c3c4n(c5nc(-c6ccccn6)nn5c3=O)C(C(=O)Nc3ccc5c(c3C)OC(F)(F)O5)CC4C)C3CCC32)c1O (single isomer, unassigned) [C143-P1]
17 | 2.7 | > 10000 | 7.2 | Cc1ncnc(C(=O)N2CCN(c3c4n(c5nc(-c6ccccn6)nn5c3=O)C(C(=O)Nc3ccc5c(c3C)OC(F)(F)O5)CC4C)C3CCC32)c1O (single isomer, unassigned) [C143-P3]
